Experimental data reported in PubChem BioAssay AID504847 (National Center for Advancing Translational Sciences (NCATS), 2011).
Only a part is listed here, and it is no random draw. Records with an inconclusive call do not appear. Calls of active or inactive are those of the source. Calls come from the whole dose curve; as a rule, active = well fitted inhibition curve with a large enough effect; inconclusive = small, poorly fitted or top-dose-only effect, or another doubt; inactive = no such curve, though single readings can be large or run the other way.
Potency is the fitted concentration of half-maximal effect.

Sequences of proteins named here, by UniProt entry; tags and fusion partners are left off. A change or cut given only in a name is not applied to a line headed by its entry.
UniProt P11473: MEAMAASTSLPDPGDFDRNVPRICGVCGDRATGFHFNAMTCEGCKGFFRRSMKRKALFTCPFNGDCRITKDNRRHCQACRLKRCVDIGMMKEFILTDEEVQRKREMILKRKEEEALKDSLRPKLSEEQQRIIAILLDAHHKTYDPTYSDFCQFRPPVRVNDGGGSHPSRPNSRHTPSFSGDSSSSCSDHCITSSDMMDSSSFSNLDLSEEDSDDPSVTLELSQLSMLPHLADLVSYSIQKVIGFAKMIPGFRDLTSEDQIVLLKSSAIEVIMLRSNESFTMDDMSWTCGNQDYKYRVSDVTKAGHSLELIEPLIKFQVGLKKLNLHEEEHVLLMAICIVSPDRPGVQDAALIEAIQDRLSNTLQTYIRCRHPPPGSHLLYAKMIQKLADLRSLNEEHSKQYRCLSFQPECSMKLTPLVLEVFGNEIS

What follows are molecules tested against Vitamin D3 receptor (Homo sapiens) (UniProt P11473) (assay: Inhibitors of the vitamin D receptor (VDR): qHTS). Settings: VDR-SRC2-3 peptide fluorescence polarization, 2 h.
In the case of `O=[N+]([O-])CC(O)c1ccc([N+](=O)[O-])cc1` (configuration not stated), the Potency is reported as active: 50.1 µM. In the case of `O=P(Nc1nccs1)(c1ccccc1)c1nc2ccccc2s1` (configuration not stated), the Potency is reported as active: 44.7 µM. `CS(=O)(=O)c1cc([N+](=O)[O-])c2no[n+]([O-])c2c1` was tested, and the Potency was active: 25.1 µM. With `Cc1cc(SC(NC=O)C(Cl)(Cl)Cl)ncn1` (configuration not stated) the Potency was active: 70.8 µM. For `O=P(/N=c1/nc(-c2ccccc2)n(-c2ccccc2)s1)(Nc1ccccc1)Nc1ccccc1`, the Potency was active: 20 µM. `O=C(O)c1ccccc1[As](=O)(O)O` was tested, and the Potency was active: 44.7 µM. `Cc1cc(SC(NC(=O)c2ccc(F)cc2)C(Cl)(Cl)Cl)ncn1` (configuration not stated) was tested, and the Potency was active: 22.4 µM.
